According to patent US20250092067A1, “APT1 and APT2 Inhibitors and Uses Thereof” (Cornell University, priority 2021, published 2025):
Like-named read-outs stand apart in the source and are kept apart here.

Chains of the proteins cited; added tags and fusions are not shown. Lines headed by an entry give the natural chain unless they say otherwise; changes in a name come on top.
UniProt O95372: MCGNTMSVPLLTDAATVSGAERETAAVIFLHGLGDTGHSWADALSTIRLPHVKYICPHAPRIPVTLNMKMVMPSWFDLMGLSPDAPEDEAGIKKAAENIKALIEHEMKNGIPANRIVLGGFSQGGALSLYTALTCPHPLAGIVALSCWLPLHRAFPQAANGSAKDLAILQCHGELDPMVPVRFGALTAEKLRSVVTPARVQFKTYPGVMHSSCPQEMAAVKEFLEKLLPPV
UniProt O75608: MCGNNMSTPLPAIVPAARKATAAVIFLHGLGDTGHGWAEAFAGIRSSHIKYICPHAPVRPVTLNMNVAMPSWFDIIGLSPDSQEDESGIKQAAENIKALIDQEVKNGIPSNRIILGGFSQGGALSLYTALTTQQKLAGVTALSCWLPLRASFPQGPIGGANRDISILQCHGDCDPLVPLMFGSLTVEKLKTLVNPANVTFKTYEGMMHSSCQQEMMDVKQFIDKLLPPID

Tests used:
[1] = target: APT2 (Homo sapiens, UniProt O95372); assay: APT2 enzymatic assay, resorufin acetate as fluorogenic substrate; type: biochemical
[2] = target: APT1 (Homo sapiens, UniProt O75608); assay: APT1 enzymatic assay, resorufin acetate as fluorogenic substrate; type: biochemical; settings: for APT2 selectivity / inhibition of APT1: qualitative, FIG. 4; for IC50: read-out: IC50 (μM) APT1

| SMILES | IC50 ([1]; read-out: IC50 (μM) APT2, Table 1, resorufin acetate as the substrate) [µM] | IC50 ([1]; read-out: IC50 (μM) APT2, Table 2, class symbols) [µM] | IC50 ([1]; read-out: IC50 APT2, Example 3 (FIG. 4), 15 min pre-incubation) [µM] | APT2 selectivity / inhibition of APT1 [2] | IC50 ([2]; Table 1, resorufin acetate as the substrate) [µM] | IC50 ([2]; Table 2, class symbols) [µM] |
| --- | --- | --- | --- | --- | --- | --- |
| CCOP(=O)(OCC)c1cc2cc(C(=O)N3CCN(c4ccc(OC)cc4)CC3)sc2c2ccccc12 | 4.92 | 1 to 40 | 5 | lost APT2 selectivity | 1.6 | 1 to 40 |
| COc1ccc(N2CCN(C(=O)c3cc4cc(B(O)O)c5ccccc5c4s3)CC2)cc1 | – | – | – | lost APT2 selectivity | – | – |
